Drawing on ChEMBL document CHEMBL4339202, “Benzothiophene derivatives as phosphodiesterase 10A (PDE10A) inhibitors: Hit-to-lead studies” (Bioorg Med Chem Lett, 2019), this text covers IC50 for 1 molecule.

Sequences of proteins named here, by UniProt entry; tags and fusion partners are left off. A change or cut given only in a name is not applied to a line headed by its entry.
UniProt Q9Y233: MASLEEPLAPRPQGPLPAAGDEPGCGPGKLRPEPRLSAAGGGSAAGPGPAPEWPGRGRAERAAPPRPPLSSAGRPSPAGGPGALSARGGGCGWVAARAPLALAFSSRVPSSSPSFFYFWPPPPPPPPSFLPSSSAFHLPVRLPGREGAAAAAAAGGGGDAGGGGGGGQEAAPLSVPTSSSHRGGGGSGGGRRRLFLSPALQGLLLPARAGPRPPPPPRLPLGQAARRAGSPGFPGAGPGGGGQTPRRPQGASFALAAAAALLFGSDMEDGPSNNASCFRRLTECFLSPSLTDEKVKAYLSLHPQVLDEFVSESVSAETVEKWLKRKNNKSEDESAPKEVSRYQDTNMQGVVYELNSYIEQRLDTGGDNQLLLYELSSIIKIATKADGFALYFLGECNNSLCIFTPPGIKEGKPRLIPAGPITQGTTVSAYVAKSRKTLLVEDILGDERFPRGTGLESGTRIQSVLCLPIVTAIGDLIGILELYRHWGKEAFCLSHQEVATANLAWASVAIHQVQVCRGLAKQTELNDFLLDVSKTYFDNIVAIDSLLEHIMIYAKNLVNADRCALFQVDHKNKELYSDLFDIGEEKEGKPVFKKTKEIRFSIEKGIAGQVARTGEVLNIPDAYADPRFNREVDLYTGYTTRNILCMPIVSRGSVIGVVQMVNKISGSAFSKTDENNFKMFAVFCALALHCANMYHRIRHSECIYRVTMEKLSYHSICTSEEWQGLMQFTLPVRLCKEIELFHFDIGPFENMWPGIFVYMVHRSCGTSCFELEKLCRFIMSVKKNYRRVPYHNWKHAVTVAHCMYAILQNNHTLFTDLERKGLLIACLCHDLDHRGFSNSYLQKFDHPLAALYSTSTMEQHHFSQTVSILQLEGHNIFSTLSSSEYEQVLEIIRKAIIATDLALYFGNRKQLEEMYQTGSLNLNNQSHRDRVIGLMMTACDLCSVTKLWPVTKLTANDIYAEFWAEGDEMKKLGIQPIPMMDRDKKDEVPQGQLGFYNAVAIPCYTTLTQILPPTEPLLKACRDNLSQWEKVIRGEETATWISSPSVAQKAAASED

The target in the assay is cAMP and cAMP-inhibited cGMP 3',5'-cyclic phosphodiesterase 10A (Homo sapiens, UniProt Q9Y233). The assay is described as follows: Inhibition of human MOLT4 cell-derived PDE10A using [3H]cAMP as substrate measured after 2 hrs in presence of rolipram/milrinone by topcount method.

In general, IC50 refers to the concentration that inhibits the measured activity by half.

For the molecule `COc1ccc(Cc2nccc3cc(OC)c(OC)cc23)cc1OC` [PAPAVERINE], the IC50 worked out at 97 nM.
